Our source for the outcome and AC50 values is PubChem BioAssay (EPA / NIEHS).

Amino acid sequences for entries named in this document (tags omitted). A change or cut given only in a name is not applied to a line headed by its entry.
UniProt P20789, whole entry, looked up: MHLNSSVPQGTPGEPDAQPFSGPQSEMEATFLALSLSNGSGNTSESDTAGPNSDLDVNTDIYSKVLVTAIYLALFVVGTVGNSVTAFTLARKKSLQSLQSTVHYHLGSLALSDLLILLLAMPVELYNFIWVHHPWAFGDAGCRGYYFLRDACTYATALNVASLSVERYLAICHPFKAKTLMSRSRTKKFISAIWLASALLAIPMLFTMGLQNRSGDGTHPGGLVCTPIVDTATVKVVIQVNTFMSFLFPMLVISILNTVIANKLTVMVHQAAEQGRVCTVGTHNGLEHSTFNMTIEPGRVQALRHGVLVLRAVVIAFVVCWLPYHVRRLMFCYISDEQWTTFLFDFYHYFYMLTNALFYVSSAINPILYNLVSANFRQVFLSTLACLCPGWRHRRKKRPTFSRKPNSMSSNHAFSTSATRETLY
UniProt Q15822: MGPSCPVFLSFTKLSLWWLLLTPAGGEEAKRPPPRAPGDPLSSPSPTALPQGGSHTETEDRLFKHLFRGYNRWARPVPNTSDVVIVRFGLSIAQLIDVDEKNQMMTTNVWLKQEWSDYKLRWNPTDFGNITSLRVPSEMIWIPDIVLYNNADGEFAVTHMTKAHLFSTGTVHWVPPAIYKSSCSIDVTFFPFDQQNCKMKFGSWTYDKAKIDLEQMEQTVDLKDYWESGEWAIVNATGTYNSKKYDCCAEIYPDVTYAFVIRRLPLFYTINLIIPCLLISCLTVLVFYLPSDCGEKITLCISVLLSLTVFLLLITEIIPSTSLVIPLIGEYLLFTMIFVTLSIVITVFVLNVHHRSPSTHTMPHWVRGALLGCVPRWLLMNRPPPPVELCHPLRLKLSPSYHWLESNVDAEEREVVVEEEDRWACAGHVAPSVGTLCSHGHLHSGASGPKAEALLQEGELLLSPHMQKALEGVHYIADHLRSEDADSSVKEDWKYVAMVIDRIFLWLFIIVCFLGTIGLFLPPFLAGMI
UniProt P08219: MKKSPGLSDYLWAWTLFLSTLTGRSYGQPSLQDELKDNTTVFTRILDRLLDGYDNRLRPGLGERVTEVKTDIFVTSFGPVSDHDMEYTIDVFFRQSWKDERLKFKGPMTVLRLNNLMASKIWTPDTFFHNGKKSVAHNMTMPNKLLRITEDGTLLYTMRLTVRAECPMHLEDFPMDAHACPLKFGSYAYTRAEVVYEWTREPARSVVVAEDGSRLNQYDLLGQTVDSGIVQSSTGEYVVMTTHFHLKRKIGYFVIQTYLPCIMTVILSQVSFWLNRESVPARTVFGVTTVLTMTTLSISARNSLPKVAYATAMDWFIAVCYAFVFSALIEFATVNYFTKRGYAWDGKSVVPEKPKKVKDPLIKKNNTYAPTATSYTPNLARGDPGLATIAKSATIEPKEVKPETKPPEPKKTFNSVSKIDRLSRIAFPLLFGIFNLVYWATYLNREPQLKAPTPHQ
UniProt P46098, whole entry, looked up: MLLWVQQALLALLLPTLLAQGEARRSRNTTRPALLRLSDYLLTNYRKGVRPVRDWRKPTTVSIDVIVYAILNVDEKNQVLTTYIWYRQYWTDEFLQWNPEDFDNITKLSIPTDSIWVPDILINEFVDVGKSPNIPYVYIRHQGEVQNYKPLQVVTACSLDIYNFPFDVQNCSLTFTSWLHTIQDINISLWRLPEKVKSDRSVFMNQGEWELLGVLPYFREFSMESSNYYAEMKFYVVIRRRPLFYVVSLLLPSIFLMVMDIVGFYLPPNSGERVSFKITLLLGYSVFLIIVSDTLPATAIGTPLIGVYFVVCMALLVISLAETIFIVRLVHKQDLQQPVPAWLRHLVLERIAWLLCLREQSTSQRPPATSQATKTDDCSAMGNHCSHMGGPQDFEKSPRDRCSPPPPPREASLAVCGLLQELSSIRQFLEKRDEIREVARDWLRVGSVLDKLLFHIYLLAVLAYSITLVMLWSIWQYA
UniProt P70536: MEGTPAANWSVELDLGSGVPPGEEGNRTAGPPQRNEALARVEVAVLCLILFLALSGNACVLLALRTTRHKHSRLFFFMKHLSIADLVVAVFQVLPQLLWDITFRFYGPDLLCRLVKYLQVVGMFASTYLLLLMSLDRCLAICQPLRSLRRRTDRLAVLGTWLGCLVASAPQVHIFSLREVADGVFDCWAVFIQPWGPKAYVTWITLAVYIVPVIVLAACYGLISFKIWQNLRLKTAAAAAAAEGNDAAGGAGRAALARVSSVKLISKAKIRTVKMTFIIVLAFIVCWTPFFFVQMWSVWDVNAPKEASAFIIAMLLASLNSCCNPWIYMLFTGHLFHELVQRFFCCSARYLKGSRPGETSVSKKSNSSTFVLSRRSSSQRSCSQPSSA
UniProt P16177, whole entry, looked up: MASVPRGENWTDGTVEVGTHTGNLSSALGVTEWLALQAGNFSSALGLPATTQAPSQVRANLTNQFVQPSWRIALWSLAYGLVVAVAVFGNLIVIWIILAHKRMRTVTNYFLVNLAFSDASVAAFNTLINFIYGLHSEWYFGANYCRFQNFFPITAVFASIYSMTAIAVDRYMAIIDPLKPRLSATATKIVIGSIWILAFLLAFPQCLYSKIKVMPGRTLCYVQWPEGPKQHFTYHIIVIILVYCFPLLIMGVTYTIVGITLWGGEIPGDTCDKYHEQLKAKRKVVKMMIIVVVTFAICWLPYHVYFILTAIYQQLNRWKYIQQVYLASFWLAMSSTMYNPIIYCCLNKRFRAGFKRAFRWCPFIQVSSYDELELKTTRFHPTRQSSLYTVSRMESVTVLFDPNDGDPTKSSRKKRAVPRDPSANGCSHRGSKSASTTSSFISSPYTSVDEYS
UniProt Q05941, whole entry, looked up: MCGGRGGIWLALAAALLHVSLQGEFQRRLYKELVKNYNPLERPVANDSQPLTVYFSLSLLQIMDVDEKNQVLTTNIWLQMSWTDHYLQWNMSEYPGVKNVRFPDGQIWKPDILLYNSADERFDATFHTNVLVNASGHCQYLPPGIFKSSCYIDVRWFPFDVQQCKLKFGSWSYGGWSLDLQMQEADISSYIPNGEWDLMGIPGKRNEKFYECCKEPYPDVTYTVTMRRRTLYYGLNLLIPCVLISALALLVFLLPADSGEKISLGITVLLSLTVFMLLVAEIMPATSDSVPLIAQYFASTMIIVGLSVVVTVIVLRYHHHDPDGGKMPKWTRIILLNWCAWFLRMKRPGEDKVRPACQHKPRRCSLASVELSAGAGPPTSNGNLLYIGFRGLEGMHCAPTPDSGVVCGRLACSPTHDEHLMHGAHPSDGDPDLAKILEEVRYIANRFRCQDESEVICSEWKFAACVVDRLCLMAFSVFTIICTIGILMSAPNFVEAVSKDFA

By AC50 is commonly meant the concentration giving half of the maximal activity seen.

The target of assay [1] is rat Neurotensin Receptor (NTS), Ntsr1 (gene 366274) (UniProt P20789). Put plainly: NVS_GPCR_rNTS: NovaScreen (NVS) G Protein-Coupled Receptor Assay for rat Neurotensin Receptor (NTS) (AID 2283308). As to the method: (§1) NVS_GPCR_rNTS is a biochemical, single-readout assay that uses extracted gene-proteins from Rat forebrain membranes in a tissue-based cell-free assay. Measurements were taken 1 hour after chemical dosing in a 48-well plate.NVS_GPCR_rNTS is one of one assay component(s) measured or calculated from the NVS_GPCR_rNTS assay. It is designed to make measurements of radioligand binding, a form of binding reporter, as detected with scintillation counting signals by Filter-based radiodetection technology.Data from the assay component NVS_GPCR_rNTS was analyzed into 1 assay endpoint. This assay endpoint, NVS_GPCR_rNTS, was analyzed in the positive analysis fitting direction relative to DMSO as the negative control and baseline of activity. […] Furthermore, this assay endpoint can be referred to as a primary readout, because the performed assay has only produced 1 assay endpoint. […]
(§2) Binding assays used specific radioligands (tritiated, iodinated) with non-radioactive competitive displacement ligands in agonist or antagonist protocols (as indicated) and various reference compounds and inhibitors to titrate specific binding to receptors and transporters. Most enzyme assays (CYPs, kinases, phosphatases, proteases, HDACs) used recombinant protein and specific substrates (fluorescence mostly, some colorimetric and radioactive) and inhibitors, followed by a biochemical separation of substrate and product. […]

The target of assay [2] is human Neonicotinoid receptor (NNR), CHRNA2 (gene 1135) (UniProt Q15822). Put plainly: NVS_LGIC_hNNR_NBungSens: NovaScreen (NVS) Ligand-Gated Ion Channel Assay for human Neonicotinoid receptor (NNR) (AID 2283313). The procedure, abridged:
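Radioligand displacement on human neuroblastoma membranes, 2 h, filter-based scintillation counting. Primary screen in duplicate at 25 uM; chemicals passing threshold (e.g. 30% inhibition) run singleton concentration-response to 50 uM; loss of binding fitted versus DMSO.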

Assay [3] can be described thus: NVS_IC_rCaDHPRCh_L: NovaScreen (NVS) Ion Channel Assay for rat Calcium Channel, Type L, Dihydropyridine Site (CaDHPRCh_L) (AID 2283320). The procedure, abridged:
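Radioligand binding to dihydropyridine site on rat cortical membranes, filter-based scintillation counting, 1 h after dosing. Screened in duplicate at 25 uM; actives rerun in concentration-response up to 50 uM. Loss of signal versus DMSO baseline.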

Assay [4] deals with bovine Gamma-Aminobutyric Acid Type A Receptor BDZ, alpha 1 site (GABARa1), GABRA1 (gene 780973) (UniProt P08219). Put plainly: NVS_LGIC_bGABARa1: NovaScreen (NVS) Ligand-Gated Ion Channel Assay for bovine Gamma-Aminobutyric Acid Type A Receptor BDZ, alpha 1 site (GABARa1) (AID 2283321). The procedure, abridged: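 Radioligand competition binding on bovine cortical membranes, 0.75 h, filter-based scintillation counting. Primary single concentration 25 uM in duplicate; actives rerun in concentration-response to 50 uM max. Loss of signal fitted versus DMSO.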

Assay [5] concerns the target human Serotonin, 5-Hydroxytryptamine Receptor 3 (5HT3), HTR3A (gene 3359) (UniProt P46098). As to the kind of experiment: NVS_LGIC_h5HT3: NovaScreen (NVS) Ligand-Gated Ion Channel Assay for human Serotonin, 5-Hydroxytryptamine Receptor 3 (5HT3) (AID 2283325). The procedure, abridged:
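Radioligand displacement binding to human 5-HT3 from HEK293 membranes, read by filter-based scintillation counting after 1 h. Screen at 25 uM in duplicate; chemicals passing threshold were retested in concentration-response up to 50 uM.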

Assay [6] concerns the target rat Oxytocin Receptor (OXT), Oxtr (gene 25342) (UniProt P70536). Put plainly: NVS_GPCR_rOXT: NovaScreen (NVS) G Protein-Coupled Receptor Assay for rat Oxytocin Receptor (OXT) (AID 2283330). As to the method:
as §1, with “NVS_GPCR_rOXT” for “NVS_GPCR_rNTS”, “uterine” for “forebrain”, “plate.NVS_GPCR_rOXT” for “plate.NVS_GPCR_rNTS”, “NVS_GPCR_rOXT,” for “NVS_GPCR_rNTS,”
as §2

Assay [7] has as its target rat Neurokinin-3 Receptor (NK3), Tacr3 (gene 24808) (UniProt P16177). Put plainly: NVS_GPCR_rNK3: NovaScreen (NVS) G Protein-Coupled Receptor Assay for rat Neurokinin-3 Receptor (NK3) (AID 2283310). The procedure, abridged:
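Rat cortical membranes; radioligand binding with filtration and scintillation counting, 2 h after dosing. Primary screen in duplicate at 25 uM, then concentration-response up to 50 uM; loss of binding signal relative to DMSO.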

Assay [8] has as its target rat Neonicotinoid receptor (NNR), Chrna7 (gene 25302) (UniProt Q05941). Put plainly: NVS_LGIC_rNNR_BungSens: NovaScreen (NVS) Ligand-Gated Ion Channel Assay for rat Neonicotinoid receptor (NNR) (AID 2283315). The essentials:
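Radioligand displacement binding on rat cortical membranes, 2.5 h incubation, filtration and scintillation counting. Loss of specific binding fitted relative to DMSO.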

Assay [9] deals with Sodium channel protein type 1 subunit alpha (Rattus norvegicus) (UniProt P04774). As to the kind of experiment: NVS_IC_rNaCh_site2: NovaScreen (NVS) Ion Channel Assay for rat Sodium Channel, Site 2 (NaCh) (AID 2283322).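 Also: hit means loss of radioligand binding signal relative to DMSO so AC50 marks displacement.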 As to the method: NVS_IC_rNaCh_site2 is a biochemical, single-readout assay that uses extracted gene-proteins from Rat forebrain membranes in a tissue-based cell-free assay. Measurements were taken 1 hour after chemical dosing in a 48-well plate.NVS_IC_rNaCh_site2 is one of one assay component(s) measured or calculated from the NVS_IC_rNaCh_site2 assay. It is designed to make measurements of radioligand binding, a form of binding reporter, as detected with scintillation counting signals by Filter-based radiodetection technology.Data from the assay component NVS_IC_rNaCh_site2 was analyzed into 1 assay endpoint. This assay endpoint, NVS_IC_rNaCh_site2, was analyzed in the positive analysis fitting direction relative to DMSO as the negative control and baseline of activity. Using a type of binding reporter, loss-of-signal activity can be used to understand changes in the binding as they relate to the gene Scn1a. Furthermore, this assay endpoint can be referred to as a primary readout, because the performed assay has only produced 1 assay endpoint. To generalize the intended target to other relatable targets, this assay endpoint is annotated to the ion channel intended target family, where the subfamily is sodium channel. […]

Several values for one entry are separate records, joined by “and”; a condition that tells them apart may be missing. Equal entries are not always repeated. The entries are a selection whose mix differs from that of the whole data set. Records with an inconclusive call do not appear. Activity calls are given as the source filed them. The calls were made as follows: active = hit-call score of the fitted dose curve at least 0.9, where 1 is the maximum; inconclusive = response in the unintended direction; inactive = score below 0.9.

As for `CC(C)OP(=S)(OC(C)C)SCCNS(=O)(=O)c1ccccc1`, the molecule was called inactive in assay [1], in assay [2], in assay [3], in assay [5] and in assay [6]. Moreover, the AC50 in assay [4] was active: 2.16 µM and active: 1.75 µM and active: 3.1 µM.

`CN(C(=O)Cc1cccc2occc12)[C@H]1CC[C@@]2(CCCO2)C[C@@H]1N1CCCC1`: in assay [7], the call was inactive.

Consider `O=C(Cl)Oc1ccccc1`, for which the outcome in assay [8] was inactive.

Consider `CCCCOP(OCCCC)OCCCC`, for which the AC50 in assay [9] was active: 4.96 µM.
